This experiment has as its target JAK1 (Homo sapiens (Human), UniProt P23458). As to the kind of experiment: JAK Caliper Enzyme Assay at 1 mM ATP (JAK1). The note with it: Caliper assay at 1 mM ATP. Type of experiment: biochemical. How it is done: JAK Caliper Enzyme Assay at 1 mM ATP
Test article was solubilized in dimethyl sulfoxide (DMSO) to a stock concentration of 30 mM. An 11-point half log dilution series was created in DMSO with a top concentration of 600 μM. […] The compound plates were diluted 1 to 60 resulting in a top final assay compound concentration of 10 μM and a 2% DMSO concentration.
Test article and assay controls were added to a 384-well plate. Reaction mixtures contained 20 mM HEPES, pH 7.4, 10 mM magnesium chloride, 0.01% bovine serum albumin (BSA), 0.0005% Tween 20, 1 mM ATP and 1 μM peptide substrate. […] Enzyme concentrations and incubation times were optimized for each new enzyme preps and were modified slightly over time to ensure 20%-30% phosphorylation. The assays were stopped with a final concentration of 10 mM EDTA, 0.1% Coating Reagent and 100 mM HEPES, pH=7.4. The assay plates were placed on a Caliper Life Science Lab Chip 3000 (LC3000) instrument, and each well was sampled using appropriate separation conditions to measure the unphosphorylated and phosphorylated peptide.

Chains of the proteins cited; added tags and fusions are not shown.
UniProt P23458, whole entry, species assumed: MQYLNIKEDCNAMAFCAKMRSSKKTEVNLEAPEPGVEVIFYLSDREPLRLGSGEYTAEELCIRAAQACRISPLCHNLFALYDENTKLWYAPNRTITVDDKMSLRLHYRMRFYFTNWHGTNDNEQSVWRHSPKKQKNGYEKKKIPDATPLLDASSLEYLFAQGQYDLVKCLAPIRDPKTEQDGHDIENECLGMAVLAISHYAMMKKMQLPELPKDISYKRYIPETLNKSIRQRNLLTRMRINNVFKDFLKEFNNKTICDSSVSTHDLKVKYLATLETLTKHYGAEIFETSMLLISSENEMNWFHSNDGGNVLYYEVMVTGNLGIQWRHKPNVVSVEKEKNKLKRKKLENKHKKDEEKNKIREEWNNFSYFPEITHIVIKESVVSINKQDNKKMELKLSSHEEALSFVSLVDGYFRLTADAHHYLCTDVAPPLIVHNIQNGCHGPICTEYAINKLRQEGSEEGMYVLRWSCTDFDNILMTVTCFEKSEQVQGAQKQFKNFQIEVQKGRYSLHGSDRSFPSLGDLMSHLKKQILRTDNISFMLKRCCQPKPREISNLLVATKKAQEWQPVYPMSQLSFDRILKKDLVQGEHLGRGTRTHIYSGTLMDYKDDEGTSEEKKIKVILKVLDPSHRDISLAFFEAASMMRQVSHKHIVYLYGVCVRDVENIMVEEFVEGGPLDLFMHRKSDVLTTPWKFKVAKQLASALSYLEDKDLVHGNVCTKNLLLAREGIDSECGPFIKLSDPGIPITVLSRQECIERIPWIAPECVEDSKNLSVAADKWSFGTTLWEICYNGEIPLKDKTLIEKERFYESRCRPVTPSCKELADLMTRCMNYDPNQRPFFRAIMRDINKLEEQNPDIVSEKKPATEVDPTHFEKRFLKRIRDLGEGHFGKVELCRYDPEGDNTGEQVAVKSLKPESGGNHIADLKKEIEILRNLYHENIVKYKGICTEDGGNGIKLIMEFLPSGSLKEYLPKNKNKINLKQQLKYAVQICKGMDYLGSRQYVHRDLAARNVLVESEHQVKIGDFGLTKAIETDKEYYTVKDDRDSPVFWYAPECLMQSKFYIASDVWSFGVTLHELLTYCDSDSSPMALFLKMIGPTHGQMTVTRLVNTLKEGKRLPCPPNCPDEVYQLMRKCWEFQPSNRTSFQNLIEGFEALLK

Data on one substance can be found in US9518052B2, “Pyrazolopyridines and pyrazolopyrimidines” (Pfizer Inc., priority 2014, dated 2016).

Broadly, the IC50 is the point on the concentration scale where inhibition reaches its midpoint. The low end stands for greater potency, the high end for weaker potency. “N-benzyl-2-[6-(2-ethyl-4-hydroxyphenyl)-1H-pyrazolo[4,3-c]pyridin-4-yl]-1,2,3,4-tetrahydroiso-quinoline-5-carboxamide formate [Example 117]” had a 50% inhibitory concentration (IC50) of 7.2 nM.
